# esBAF inh – SWI/SNF esBAF complex inhibition; 2% of 350,000 active; mouse ES cells, Bmi1-luciferase knock-in reporter, 24 h; 100% = twice the neutral-well signal; reporter increase, % at 12.5 µM; AID 602393; in the data active = activation above about 40%; inconclusive = no clear call, values can overlap the other calls;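 also: 0% = median of the plate's neutral control wells and 100% = double that signal; a rise in the Bmi1 reporter signal indicates esBAF inhibition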
# C2C12 statin – protects C2C12 myotubes from simvastatin toxicity; 0.78% of 330,000 active; rescue of ATP level, % at 7.49 µM; ATP luminescence, 48 h; scaled: DMSO 0, geranylgeraniol control 100;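 active = mean ATP rescue above about 67%, or every replicate alone reaching that limit, limit read from the data, passing the limit was not always enough; inconclusive = no clear call, values can overlap the other calls; inactive = mean under the limit and some replicate under it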;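 also: myotubes were challenged with 10 µM simvastatin during compound exposure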
# PGC1a acetyl inh – modulators of PGC1a acetylation. AID 651687. inhibition, % at 15.6 µM. U2OS PGC1a acetylation, AlphaScreen anti-acetyl-lysine; with virally co-expressed GCN5 acetyltransferase. 0.17% of 350,000 active;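 active = every replicate shows inhibition of at least 40%; inconclusive = mean inhibition at least 40% but some replicate below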;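 also: 0% = neutral control wells and 100% = positive control wells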
# PglD inh – PglD (C. jejuni) enzyme inhibition; 0.098% of 360,000 active; purified PglD enzyme, DTNB colorimetric CoA detection; inhibition, % at 12.5 µM; AID 602405; in the data active = inhibition above about 16%, passing the limit was not always enough; inconclusive = no clear call, values can overlap the other calls
# Yeast UUG start – alters start codon recognition fidelity in yeast; AID 602363; activity score, % at 18.7 µM; 350,000 tested, 0.13% active; S. cerevisiae UUG-firefly luciferase reporter, luminescence/redox ratio;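 active means replicate mean at a twofold rise or more, about +100% in these data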;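 further: firefly luciferase made from a UUG start codon reports start codon fidelity; reporter light over untreated wells divided by growth signal over untreated wells; some hits fall short of that in this replicate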
# E-sel inducer – E-selectin induction on HUVECs; P16581; HUVEC E-selectin immunofluorescence imaging; normalized: neutral wells 0, TNF-alpha wells 100; activation, % at 7.58 µM; 0.37% of 260,000 active;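 active = mean E-selectin-positive cell signal at least 10% of the positive control, reached in at least 60% of replicates, without over 20% cell loss; inconclusive = no rule given, readout overlaps actives, possibly toxicity-flagged; inactive = the rest, including those meeting only one limit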
#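 System: HUVEC, human umbilical vein endothelial cells; quantity: 3,000 cells/well; buffer or medium: EGM-2 medium, gelatin-coated wells; dosing: single-point compound dose; detection: immunofluorescence imaging; evaluation: % PE-positive cells; benchmarks: TNF-alpha, DMSO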
# * hit, by the source's call; ? = inconclusive; / = not tested or not shown. An excerpt weighted towards active compounds, which were near 2.8% of everything screened.
Structure | esBAF inh | C2C12 statin | PGC1a acetyl inh | PglD inh | Yeast UUG start | E-sel inducer
CCCN1[C@@H]2c3ccc(C4=CCCCC4)c(=O)n3C[C@@H]2[C@@H](CO)[C@@H]1C(=O)N(C)C | / | / | 4 | / | / | 0
CCOC(=O)c1cccc(NC(=O)c2cc3ccccc3o2)c1 | 46* | -6 | -31 | -7 | -12 | 0
O=C(Nc1cccc(/C=C/c2nc3ccccc3c(=O)[nH]2)c1)c1ccccc1Cl | 80* | -99 | -5 | -1 | -17 | ?
CCC(=O)Nc1ccc(NC(=O)c2cc3ccccc3o2)c(OC)c1 | 43* | -9 | 0 | 5 | 0 | /
Cc1nc(NC(=O)c2cc3ccccc3o2)ccc1Br | 69* | -8 | 8 | -6 | -2 | 0
Cc1cccc(NC(=O)c2cc3ccccc3o2)c1 | 63* | / | 13 | 1 | -4 | /
COc1ccc(Cl)cc1C(=O)Nc1ccc(Br)c(C)n1 | 61* | -31 | -4 | -5 | -9 | /
Cc1cccc(NC(=O)c2cc(Cl)nc3ccccc23)c1 | -3 | 93* | 1 | 5 | -26 | /
CCC1(C)Cc2ccccc2C(=O)N1 (stereo not drawn) | 0 | 0 | -8 | 5 | -16 | 4
CCC1(C)Cc2ccccc2C(=S)N1 (stereo not drawn) | -7 | 88* | -4 | 1 | -9 | /
C[C@@H]1CN([C@H](C)CO)C(=O)Cc2cc(NC(=O)NC3CCCCC3)ccc2O[C@H]1CN(C)Cc1ccc(Oc2ccccc2)cc1 | 4 | 11 | 0 | -1 | -21 | 0
CCOc1ccc(OCc2ccc(C(=O)N3CCOCC3)cc2)cc1 | 35 | 0 | -4 | 1 | -6 | /
CCOc1ccc(N=C(/C(C(=O)C(=O)N2CCOCC2)=C(\O)c2ccccc2)c2ccccc2)cc1 | 68* | 0 | 5 | -3 | 1 | 0
O=[N+]([O-])c1cc(S(=O)(=O)C(F)(F)F)ccc1Sc1nc2ccccc2s1 | -14 | 86* | 0 | -12 | -24 | /
CO[C@@H]1CN(C)C(=O)c2cc(NS(=O)(=O)CC(F)(F)F)ccc2OC[C@@H](C)N(Cc2ccccn2)C[C@@H]1C | 0 | 8 | -6 | 5 | -21 | -1
Nc1nsc2ccccc12 | 1 | 120* | -44 | 11 | -7 | /
Clc1ccc(CN=C2Nc3ccccc3CS2)cc1 | 56* | 5 | 4 | / | -17 | 1
C[C@H]1CN([C@@H](C)CO)C(=O)c2cc(NC(=O)Nc3cccc4ccccc34)ccc2O[C@@H]1CN(C)CC1CCCCC1 | 0 | 34 | 8 | 2 | -5 | -8
CN1CCN(C(=O)c2cc(COc3ccccc3)on2)[C@@H](c2ccccc2)C1 | 64* | -4 | / | -2 | -10 | /
COc1cccc(OCc2cc(C(=O)N3CCNC(=O)C3Cc3ccccc3)no2)c1 (stereo not drawn) | 51* | 5 | 7 | 0 | 15 | /

# 2 entries picked at random from the list so far, as already listed:
Structure | esBAF inh | C2C12 statin | PGC1a acetyl inh | PglD inh | Yeast UUG start | E-sel inducer
C[C@@H]1CN([C@H](C)CO)C(=O)Cc2cc(NC(=O)NC3CCCCC3)ccc2O[C@H]1CN(C)Cc1ccc(Oc2ccccc2)cc1 | 4 | 11 | 0 | -1 | -21 | 0
Nc1nsc2ccccc12 | 1 | 120* | -44 | 11 | -7 | /

# Carrying on:
# Short forms: A = esBAF inh; B = C2C12 statin; C = PGC1a acetyl inh; D = PglD inh; E = Yeast UUG start; F = E-sel inducer
COc1cccc(OCc2cc(C(=O)N3CCCC3c3ccccn3)no2)c1 (stereo not drawn)
  A: 60*; B: 4; C: /; D: 2; E: -15; F: 2
Cc1oc(-c2ccc(Cl)cc2)[n+]([O-])c1C
  A: -6; B: 76*; C: 2; D: -7; E: -21; F: /
COc1ccc2oc3cc(C)[n+]([O-])c(-c4ccc(Cl)cc4)c3c2c1
  A: /; B: /; C: -5; D: -1; E: 9; F: /
C[C@H]1CCCCO[C@H](CN(C)C(=O)Nc2ccc(C(F)(F)F)cc2)[C@@H](C)CN([C@@H](C)CO)C(=O)c2cc(N(C)C)ccc2O1
  A: 0; B: -8; C: 20; D: -2; E: 2; F: 0
COc1ccc2c3c([nH]c2c1)[C@@H](CO)N(C(=O)c1ccccc1)CC31CN(C(=O)c2cccc(F)c2)C1
  A: /; B: /; C: /; D: /; E: /; F: 0
COc1cccc2cc(C(=O)N3CCc4ccccc4C3)c(=O)oc12
  A: 78*; B: -16; C: -5; D: 1; E: -13; F: /
COc1cccc2cc(-c3ccccc3)c(=O)oc12
  A: 32*; B: /; C: /; D: -5; E: 1; F: 1
Cc1cc(C(=O)N2CCc3ccccc3C2)no1
  A: -5; B: 1; C: /; D: -8; E: -12; F: 0
Cc1cc(C(=O)N2CCc3ccccc3C2)c(C)o1
  A: 52*; B: 1; C: 7; D: 3; E: 5; F: 0
CCOc1cccc2cc(C(=O)N3CCc4ccccc4C3)c(=O)oc12
  A: -2; B: 20; C: 6; D: 3; E: -14; F: /
COc1ccc(-c2cc3cccc(OC)c3oc2=O)cc1
  A: -10; B: -33; C: 3; D: -7; E: -58; F: 0

# Quoted from the listing:
# C[C@H]1CCCCO[C@H](CN(C)C(=O)Nc2ccc(C(F)(F)F)cc2)[C@@H](C)CN([C@@H](C)CO)C(=O)c2cc(N(C)C)ccc2O1 in E-sel inducer has 0
# COc1ccc2oc3cc(C)[n+]([O-])c(-c4ccc(Cl)cc4)c3c2c1 in Yeast UUG start has 9
# Cc1oc(-c2ccc(Cl)cc2)[n+]([O-])c1C in PGC1a acetyl inh has 2

# Screening results deposited in PubChem BioAssay by Broad Institute.
